Amino acid sequences for entries named in this document (tags omitted).
UniProt P11712, whole entry: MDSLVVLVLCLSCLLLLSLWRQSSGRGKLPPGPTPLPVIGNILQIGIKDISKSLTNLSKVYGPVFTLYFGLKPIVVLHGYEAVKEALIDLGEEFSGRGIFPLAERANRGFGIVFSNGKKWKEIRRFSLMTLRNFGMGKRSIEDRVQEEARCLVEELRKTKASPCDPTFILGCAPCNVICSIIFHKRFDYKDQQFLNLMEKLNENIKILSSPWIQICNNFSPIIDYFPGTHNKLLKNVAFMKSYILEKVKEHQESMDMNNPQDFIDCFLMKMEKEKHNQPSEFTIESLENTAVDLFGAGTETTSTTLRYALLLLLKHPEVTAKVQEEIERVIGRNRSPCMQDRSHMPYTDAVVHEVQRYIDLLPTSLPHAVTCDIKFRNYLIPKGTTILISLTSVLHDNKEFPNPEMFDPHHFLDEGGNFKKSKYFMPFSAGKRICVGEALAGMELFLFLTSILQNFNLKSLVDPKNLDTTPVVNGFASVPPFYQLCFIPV

In patent publication US20090318468A1, “PYRAZOLE COMPOUNDS 436” (AstraZeneca AB, priority 2008, published 2009):

Biological target: human cytochrome P450 (CYP) 2C9 (Homo sapiens, UniProt P11712)
Assay: Cytochrome P450 Inhibition Assay, CYP 2C9
Conditions: read-out: IC50 range (μM), CYP 2C9; expected IC50 range of known inhibitor (positive control)
Experimental: Cytochrome P450 Inhibition Assay
Microsomal subcellular fractions prepared from Yeast cell lines expressing each human CYP isoform were used as an enzyme source in this assay. The activity of the 5 major human CYPs was determined from the biotransformation of a number of coumarin substrates to fluorescent metabolites, in the presence of NADPH. […] Stock solutions of each CYP, with its respective substrate, were prepared in phosphate buffer pH 7.4 (see Table 1) and 178 μl was added to the well of a black solid, flat bottom, 300 μl 96 well microtitre plate (Corning Costar). […] After pre-incubating at 37° C. for 5 min the reactions were started with addition of NADPH (20 μl, concentration shown in Table 1). The final solvent content in each incubation was <=2% (1% from the test compound and a maximum of 1% from the substrate). The appropriate solvent controls and substrate blanks were included in each experiment to assess control activity and identify any inherent fluorescence due to the test compounds. In addition, known inhibitors of each CYP were included as positive controls (see Table 3 for inhibitor concentrations and expected IC50 ranges). […] The plates were read on a fluorimeter (Spectrafluor Plus) at the appropriate excitation and emission wavelengths (listed in Table 2) and the percent activity, corrected for control, was plotted against the test compound concentration.

Substance: Sulphaphenazole [reference compound]
- IC50: 0.1 to 1 µM
